Experimental data as given in patent publication US4299813A, “Assay kit and method” (priority 1979, dated 1981).
“And” between values parts separate entries of the source, which are not always exact repeats. Equal entries are not always repeated. Where two headings read alike, the source gives them in different places.

Chains of the proteins cited; added tags and fusions are not shown.
UniProt P31389, whole entry: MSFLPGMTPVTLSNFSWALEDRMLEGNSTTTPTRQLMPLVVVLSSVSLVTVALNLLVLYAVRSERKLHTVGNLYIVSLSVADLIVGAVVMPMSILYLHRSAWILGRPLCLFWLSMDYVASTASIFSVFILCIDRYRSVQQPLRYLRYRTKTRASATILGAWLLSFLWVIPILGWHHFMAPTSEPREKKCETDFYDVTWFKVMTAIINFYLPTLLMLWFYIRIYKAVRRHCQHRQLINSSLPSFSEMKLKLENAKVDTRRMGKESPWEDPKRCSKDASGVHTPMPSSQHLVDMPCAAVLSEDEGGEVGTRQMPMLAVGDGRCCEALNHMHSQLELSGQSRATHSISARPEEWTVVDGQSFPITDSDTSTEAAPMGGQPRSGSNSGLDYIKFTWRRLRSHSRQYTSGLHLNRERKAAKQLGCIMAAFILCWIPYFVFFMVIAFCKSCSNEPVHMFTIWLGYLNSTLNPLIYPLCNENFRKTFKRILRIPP

Target: histamine H1 receptor (guinea pig cerebellar membranes) (Cavia porcellus, UniProt P31389)
Settings: Table I
[1] = Sample 1, actual concentration 1 μM
[2] = Sample 2, actual concentration 0.2 μM
[3] = Standard C, 5 μM amitriptyline in serum
[4] = Standard D, 1 μM amitriptyline in serum
[5] = Standard E, .2 μM amitriptyline in serum
[6] = Standard F, .04 μM amitriptyline in serum

Structure (SMILES): CN(C)CCC=C1c2ccccc2CCc2ccccc21 [amitriptyline]
- B/Bo [1]: 0.369 and 0.414
- CPM [1]: 4179 CPM and 4536 CPM
- Calculated conc. [1]: 1.058 µM and 0.884 µM
- Logit (B/Bo) [1]: -0.234 and -0.151
- B/Bo [2]: 0.693 and 0.757
- CPM [2]: 6758 CPM and 7262 CPM
- Calculated conc. [2]: 0.292 µM and 0.215 µM
- Logit (B/Bo) [2]: 0.354 and 0.493
- CPM (Standard A, 100 μM amitriptyline in serum): 1187 CPM and 1083 CPM and 1484 CPM
- CPM [3]: 2132 CPM and 1864 CPM
- Logit (B/Bo) [3]: -0.904 and -1.078
- B/Bo [4]: 0.394 and 0.377
- CPM [4]: 4383 CPM and 4244 CPM
- Logit (B/Bo) [4]: -0.187 and -0.219
- B/Bo [5]: 0.789 and 0.781
- CPM [5]: 7523 CPM and 7456 CPM
- Logit (B/Bo) [5]: 0.574 and 0.552
- B/Bo [6]: 0.951 and 0.906
- CPM [6]: 8804 CPM and 8448 CPM
